In the assay the target is Mu-type opioid receptor (Rattus norvegicus, UniProt P33535).

Chains of the proteins cited; added tags and fusions are not shown.
UniProt P33535, whole entry: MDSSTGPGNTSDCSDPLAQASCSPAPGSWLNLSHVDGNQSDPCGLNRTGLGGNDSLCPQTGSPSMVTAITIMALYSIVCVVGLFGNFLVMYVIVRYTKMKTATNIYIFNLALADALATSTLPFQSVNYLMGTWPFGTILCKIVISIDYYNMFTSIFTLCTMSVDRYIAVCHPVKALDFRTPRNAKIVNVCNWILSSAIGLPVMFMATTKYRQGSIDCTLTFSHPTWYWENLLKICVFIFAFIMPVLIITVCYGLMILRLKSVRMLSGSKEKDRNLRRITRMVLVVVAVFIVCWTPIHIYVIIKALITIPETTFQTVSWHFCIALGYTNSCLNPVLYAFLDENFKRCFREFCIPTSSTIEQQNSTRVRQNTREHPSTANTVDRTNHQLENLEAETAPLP

pKi: −log10 of the molar value.

As to `C[C@@H](NC(=O)[C@@H](N)Cc1ccc(O)cc1)C(=O)NCC(=O)N(C)[C@@H](Cc1ccccc1)C(=O)NCCO` [DAMGO], the pKi (as a rule, the Ki on a negative log10 scale, so that one unit is a factor of ten) is 8.40.

The values above are taken from ChEMBL document CHEMBL1127434, “Discovery of nanomolar ligands for 7-transmembrane G-protein-coupled receptors from a diverse N-(substituted)glycine peptoid library” (J Med Chem, 1994).
